The values that follow are results of earlier work, collected in patent US20230295183A1, “HOT MELT EXTRUDED SOLID DISPERSIONS CONTAINING A BCL2 INHIBITOR” (Newave Pharmaceutical Inc., priority 2020, published 2023).

Chains of the proteins cited; added tags and fusions are not shown.
UniProt P10415, whole entry: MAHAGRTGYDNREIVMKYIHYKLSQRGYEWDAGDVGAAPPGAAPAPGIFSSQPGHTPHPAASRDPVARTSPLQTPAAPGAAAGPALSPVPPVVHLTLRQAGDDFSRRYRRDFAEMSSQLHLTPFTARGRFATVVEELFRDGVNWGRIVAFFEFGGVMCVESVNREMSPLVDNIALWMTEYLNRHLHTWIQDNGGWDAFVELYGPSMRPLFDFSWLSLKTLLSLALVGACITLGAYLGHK

The structures appear in SMILES notation.

The target in the series is BCL-2 (Homo sapiens, UniProt P10415).

As a reminder, the Ki is the dissociation constant of the complex between target and ligand, obtained from inhibition or displacement. As to `CC1(C)CCC(c2ccc(Cl)cc2)=C(CN2CCN(c3ccc(C(=O)NS(=O)(=O)c4ccc(N[C@H](CCN5CCOCC5)CSc5ccccc5)c(S(=O)(=O)C(F)(F)F)c4)cc3)CC2)C1` [ABT-263], the Ki is not above 1 nM.
